AlphaSeq binding of Ab-95 light chain variants to a spike HR2 peptide

Source: Engelhart et al. 2022 (doi:10.1038/s41597-022-01779-4), MIT Lincoln Laboratory and A-Alpha Bio; data file from the FLAb repository.

Target peptide (SARS-CoV-2 spike, HR2 region): PDVDLGDISGINAS

Parent scFv Ab-95: VH joined to VL by the linker GGGGSGGGGSGGGGS. Changes lie in the light chain CDRs alone.
VH: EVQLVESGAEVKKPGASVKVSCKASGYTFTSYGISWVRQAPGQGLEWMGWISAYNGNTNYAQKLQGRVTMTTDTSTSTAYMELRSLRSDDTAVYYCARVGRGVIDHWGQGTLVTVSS
VL: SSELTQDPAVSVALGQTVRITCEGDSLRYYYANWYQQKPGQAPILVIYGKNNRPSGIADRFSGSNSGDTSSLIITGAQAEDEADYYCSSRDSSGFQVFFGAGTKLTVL

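The library (AAYL52) carries one to three amino acid substitutions per variant, with no insertions or deletions. The assay is AlphaSeq: two haploid yeast populations carry antibody and antigen on their surface. The frequency of each diploid, read from paired DNA barcodes, reflects how well the two displayed proteins bind. Scores were corrected for input abundance and mapped to Kd with protein pairs of known affinity run in the same pool. Mating was done three times.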

Sequences are complete VL domains. Numbers give log10(Kd / nM), so 0 is 1 nM and 3 is 1 µM. Smaller is tighter. Replicates are averaged; those with no signal do not enter the mean. Where no diploid with the target was found in that replicate, the entry reads "ND": below detection, most likely a poor binder, though not proof of it. Background: pairings of library AAYL52 with three empty control strains gave a value in 28% of cases (median 3.91, 5th percentile 2.90). Values in that range, when seen in few replicates, are hard to tell from nonspecific mating. For each scFv, signals with the empty controls are counted beside the result, with their mean in brackets.

VL	log10 Kd (nM) by replicate	log10 Kd (nM), mean	control signals
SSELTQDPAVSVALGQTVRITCEGDSLRYYYANWYQQKPGQAPILVIYGKNNRPIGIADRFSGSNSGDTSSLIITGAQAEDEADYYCSSRDMSVFQVFFGAGTKLTVL	3.42 5.07 2.59	3.69	5/9 (3.73)
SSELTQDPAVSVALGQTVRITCEGDSLRLYYANWYQQKPGQAPILVIYGKNNRPSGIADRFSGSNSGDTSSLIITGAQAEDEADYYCSSPDSSGFQVWFGAGTKLTVL	2.70 2.98 2.74	2.81	1/9 (4.78)
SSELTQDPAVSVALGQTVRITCEGDSLRYYYKNWYQQKPGQAPILVIYGKNNRPSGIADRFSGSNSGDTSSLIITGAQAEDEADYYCSSLDSSGFQVNFGAGTKLTVL	ND 4.17 ND	4.17	0/9
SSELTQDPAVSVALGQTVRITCWGDSLRYYYANWYQQKPGQAPILVIYGKNNRPSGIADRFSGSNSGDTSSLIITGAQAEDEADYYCSSRDSSGFFVNFGAGTKLTVL	ND ND ND	ND	1/9 (3.47)
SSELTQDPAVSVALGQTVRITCEGDHLRYEYANWYQQKPGQAPILVIYGKNNRPSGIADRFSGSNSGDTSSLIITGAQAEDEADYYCSSYDSSGFQVFFGAGTKLTVL	4.44 ND ND	4.44	0/9
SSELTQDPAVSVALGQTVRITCEGDSLRYYYANWYQQKPGQAPILVIYGKNNRPKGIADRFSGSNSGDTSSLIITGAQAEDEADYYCSSRDSSKFFVFFGAGTKLTVL	4.17 ND ND	4.17	1/9 (5.20)
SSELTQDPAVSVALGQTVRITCEGDSLRYYYANWYQQKPGQAPILVIYGCNNRPKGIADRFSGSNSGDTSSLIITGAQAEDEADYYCSSRHSSGFQVFFGAGTKLTVL	3.69 5.64 3.09	4.14	5/9 (4.00)
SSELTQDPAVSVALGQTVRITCEGFSLRYYYANWYQQKPGQAPILVIYGKNARPSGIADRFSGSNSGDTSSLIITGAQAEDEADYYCSSRDSIGFQVFFGAGTKLTVL	3.33 3.46 ND	3.39	0/9
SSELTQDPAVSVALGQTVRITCEGDSLRYYYANWYQQKPGQAPILVIYGKNCRPSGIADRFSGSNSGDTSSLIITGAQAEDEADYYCSQTDSSGFQVFFGAGTKLTVL	5.17 ND ND	5.17	3/9 (3.79)
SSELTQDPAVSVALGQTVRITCEFDSLRYYYANWYQQKPGQAPILVIYGKNNRASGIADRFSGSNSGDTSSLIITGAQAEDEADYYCSSRDSSGDQVFFGAGTKLTVL	3.10 3.42 3.58	3.37	5/9 (3.61)
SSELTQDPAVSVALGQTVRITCEGDSLRYYYANWYQQKPGQAPILVIYNKNERPWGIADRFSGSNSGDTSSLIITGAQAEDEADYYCSSRDSSGFQVFFGAGTKLTVL	2.66 2.44 1.97	2.36	1/9 (3.71)
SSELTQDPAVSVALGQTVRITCEGDSLSYYYANWYQQKPGQAPILVIYGKNNRPYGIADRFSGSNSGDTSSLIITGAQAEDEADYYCSFRDSSGFQVFFGAGTKLTVL	2.73 2.29 1.91	2.31	2/9 (4.28)
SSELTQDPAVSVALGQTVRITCEGDGLRYYYANWYQQKPGQAPILVIYGKNNRPSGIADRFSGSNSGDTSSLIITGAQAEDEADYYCSSRNSSHFQVFFGAGTKLTVL	ND 3.40 ND	3.40	0/9
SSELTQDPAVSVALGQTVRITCEGDSLRYQYANWYQQKPGQAPILVIYGKNNRPSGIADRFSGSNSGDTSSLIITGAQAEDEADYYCSNRDSSGHQVFFGAGTKLTVL	2.63 ND ND	2.63	0/9
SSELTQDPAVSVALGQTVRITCEIDSWRYYYANWYQQKPGQAPILVIYGKNNRPSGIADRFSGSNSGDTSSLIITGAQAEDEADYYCSSPDSSGFQVFFGAGTKLTVL	ND ND ND	ND	3/9 (4.36)
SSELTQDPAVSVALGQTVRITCEGDSLRYYYANWYQQKPGQAPILVIYGKNNRPSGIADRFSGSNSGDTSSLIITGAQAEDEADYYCSGRDSSGYQVMFGAGTKLTVL	2.10 2.24 2.00	2.11	1/9 (3.68)
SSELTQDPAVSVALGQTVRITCEMDSLRYYYANWYQQKPGQAPILVIYGKNNEPSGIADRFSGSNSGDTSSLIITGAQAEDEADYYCVSRDSSGFQVFFGAGTKLTVL	ND ND ND	ND	2/9 (3.59)
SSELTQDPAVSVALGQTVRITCEGDSARYYYANWYQQKPGQAPILVIYGKNNRPCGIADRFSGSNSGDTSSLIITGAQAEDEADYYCSSRSSSGFQVFFGAGTKLTVL	ND ND 3.71	3.71	1/9 (3.03)
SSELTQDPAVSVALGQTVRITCEGDELRYYYAFWYQQKPGQAPILVIYGKNNRPNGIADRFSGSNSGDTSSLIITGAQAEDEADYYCSSRDSSGFQVFFGAGTKLTVL	ND ND ND	ND	1/9 (2.74)
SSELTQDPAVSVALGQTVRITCEGDSLRYYYANWYQQKPGQAPILVIYGKNNRPSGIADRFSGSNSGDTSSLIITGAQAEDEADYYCSSRDSRGFGDFFGAGTKLTVL	ND 5.43 3.74	4.58	2/9 (4.47)
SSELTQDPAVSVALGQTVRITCVGDSLRYYYANWYQQKPGQAPILVIYGNMNRPSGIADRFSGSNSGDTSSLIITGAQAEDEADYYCSSRDSSGFQVFFGAGTKLTVL	4.14 3.17 ND	3.66	0/9

2 of these entries, quoted again:

VL	log10 Kd (nM) by replicate	log10 Kd (nM), mean	control signals
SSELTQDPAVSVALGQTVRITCEGDSLRLYYANWYQQKPGQAPILVIYGKNNRPSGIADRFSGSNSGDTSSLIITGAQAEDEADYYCSSPDSSGFQVWFGAGTKLTVL	2.70 2.98 2.74	2.81	1/9 (4.78)
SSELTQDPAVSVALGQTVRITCEGDSLRYYYKNWYQQKPGQAPILVIYGKNNRPSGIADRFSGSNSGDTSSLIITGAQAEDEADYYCSSLDSSGFQVNFGAGTKLTVL	ND 4.17 ND	4.17	0/9

In this assay the parent's reference entry averaged 2.31; its copy inside this library read 2.25.